Assay results taken from US20230009539A1 (CLEVELAND CLINIC FOUNDATION, published 2023).

Molecular target: T1, FLAG-tagged mouse wild-type Act1 (WT) (mouse, UniProt Q8N7N6 1-555)
T1 construct: also called flag-tagged mAct1; flag-Act1; not shown: FLAG tag
T1 sequence (looked up): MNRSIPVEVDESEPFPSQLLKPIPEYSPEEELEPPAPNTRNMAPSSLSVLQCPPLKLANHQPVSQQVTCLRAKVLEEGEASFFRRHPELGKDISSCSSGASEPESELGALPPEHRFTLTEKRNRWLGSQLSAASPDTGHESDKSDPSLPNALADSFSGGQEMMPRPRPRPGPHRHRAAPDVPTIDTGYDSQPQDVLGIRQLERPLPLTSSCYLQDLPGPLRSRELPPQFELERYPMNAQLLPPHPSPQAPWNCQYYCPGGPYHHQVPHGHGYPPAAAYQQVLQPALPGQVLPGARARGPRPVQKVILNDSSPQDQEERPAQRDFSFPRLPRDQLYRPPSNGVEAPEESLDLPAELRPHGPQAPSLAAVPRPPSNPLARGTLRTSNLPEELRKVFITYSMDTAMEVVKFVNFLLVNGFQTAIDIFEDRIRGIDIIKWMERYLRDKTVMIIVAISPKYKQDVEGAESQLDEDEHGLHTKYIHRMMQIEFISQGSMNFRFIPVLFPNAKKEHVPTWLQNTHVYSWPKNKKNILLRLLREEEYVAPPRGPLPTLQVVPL
Test: co-immunoprecipitation with anti-FLAG from Act1-/- MEFs reconstituted with FLAG-Act1 WT, IL-17 lanes 0, .5, 1, 2, 3 (sheet prints 'min'), Western blot
Excerpt: Data represent mean±SD; **, p<0.01. F. In situ PLA assay in HeLa cells transfected with the indicated expression constructs. Primary mouse antibodies against Flag-tag and rabbit antibodies against HA-tag were used. The red dots indicate the interaction of the two proteins including Dcp1-Flag/Act1-HA, IL-17-RA-Flag/Act1-HA, HuR-Flag/Act1-HA and SF2-Flag/Act1-HA. The co-transfection of IRAK1-Flag and Act1-HA was used as a negative control for PLA assay. Nuclei stained with DAPI. The expression levels of the transfected constructs were also analyzed by western analyses shown below the imaging data. […] Data represent mean±SD; **, p<0.01. […] The quantification is based on the analysis of over 50 expressing cells, followed by two-tailed Student's t-test. Data represent mean±SD; *, p<0.05, **, p<0.01. I. Act1−/−MEFs reconstituted by retroviral infection with either FLAG-tagged mouse wild-type Act1 (WT) or SEFIR1 deletion mutant were treated with IL-17 (50 ng/ml) for the indicated times. The cell lysates were immunoprecipitated (IP) with anti-FLAG followed by Western blot analysis using antibodies as indicated. Data are representative of two independent experiments. […]

B1: SF2 (endogenous, MEFs) (other, mouse (MEFs), UniProt Q6PDM2 2-248, looked up)
chain: SGGGVIRGPAGNNDCRIYVGNLPPDIRTKDIEDVFYKYGAIRDIDLKNRRGGPPFAFVEFEDPRDAEDAVYGRDGYDYDGYRLRVEFPRSGRGTGRGGGGGGGGGAPRGRYGPPSRRSENRVVVSGLPPSGSWQDLKDHMREAGDVCYADVYRDGTGVVEFVRKEDMTYAVRKLDNTKFRSHEGETAYIRVKVDGPRSPSYGRSRSRSRSRSRSRSRSNSRSRSYSPRRSRGSPRYSPRHSRSRSRT
- binding result: binds
